Data: publication PMC3765993, “The duration of sleep promoting efficacy by dual orexin receptor antagonists is dependent upon receptor occupancy threshold” (BMC Neuroscience, 2013)

Test system: OX2R
Format: in vivo, dog
Details: dogs; calculated from rat occupancy values normalized for unbound plasma values

Cc1ccc(-n2nccn2)c(C(=O)N2CCN(c3nc4cc(Cl)ccc4o3)CC[C@H]2C)c1 [Suvorexant, [(7R)-4-(5-chloro-1,3-benzoxazol-2-yl)-7-methyl-1,4-diazepan-1-yl][5-methyl-2-(2H-1,2,3-triazol-2-yl)phenyl]methanone]
OX2R occupancy corresponding to plasma exposure of 0.342 μM: 65.7%
